Measured values published in patent US6624187B1, “Long wave length absorbing bacteriochlorin alkyl ether analogs” (Health Research, Inc., priority 2000, dated 2003).

Test: Stability in vivo (and in vitro) of bacteriopurpurin ring systems
From the text: For the preparation of bacteriopurpurin 1 (FIG. 2), the n-propyl alcohol extract of Rb Sphaeroides, which contains bacteriochlorophyll-a (λmax 774 nm), was directly reacted with KOH/n-propanol in presence of air. It was immediately treated with HCl or H2SO4 (pH 2 to 3) to produce bacteriopurpurin-18 propyl ester and the related carboxylic acid 2 which in reacting with H2SO4/n-propanol can be converted into the related propyl ester analog 1.
Compared to the anhydride ring system, compounds with fused imide ring system in other compounds have shown stability in vivo. For example, among non-porphyrin systems, amonafide, an imide derivative and its structural analogs are reported as anti-neoplastic agents in vitro as well as in vivo with good stability. While we could not know how this might apply to non-porphyrin systems, we investigated the effect of such cyclic structures in the bacteriochlorin system. Initially we followed our own methodology developed for the preparation of purpurin-18-N-alkylimides (U.S. Pat. No. 5,952,366 incorporated herein by reference). Unfortunately, that approach produced a complex reaction mixture. Thus, in a modified approach, bacteriopurpurin-a 2 was first reacted with an alkyl amine (e.g. n-hexyl amine). The formation of the intermediate amide was monitored by spectrophotometry and analytical thin layer chromatography. […]

Substance: 3-Acetyl-bacteriopurpurin-18-N-hexylimide [Compound 4]
- stability in vitro and in vivo: stable in vitro and in vivo
